The values below come from patent US12533333B2, “Method of treatment of obesity” (Queen Mary University of London, priority 2016, dated 2026).

Entries after “also recorded” stand apart in the source; their conditions may differ.

The assay concerns phosphorylated CaMKII. Nature of the assay: pCaMKII activation in human colonic mucosa / proximal colon. The class given is cell-based.

With `Cc1ccc(-c2ccc(F)cc2COc2ccc(CCC(=O)O)cc2)cc1` [TUG891, 3-(4-((4-fluoro-4′-methyl-[1,1′-biphenyl]-2-yl)methoxy)phenyl)propanoic acid], the “activation of 5-HT positive (EC) cells” value is “some activated cells identified as EC cells”, the “activation of intracellular pathway driven by phosphorylated CaMKII” value is listed as “preferentially activates; also recorded: only activates” and the “cellular activation as measured by expression of pCAMKII” value is on record as “significantly increases”.
